Assay results reported in ChEMBL document CHEMBL2176897, “Synthesis and biological evaluation (in vitro and in vivo) of cyclic arginine-glycine-aspartate (RGD) peptidomimetic-paclitaxel conjugates targeting integrin αVβ3” (J Med Chem, 2012).

assay: Selectivity ratio of IC50 for integrin alphaVbeta5 receptor to IC50 for integrin alphaVbeta3 receptor

| SMILES | Ratio IC50 |
| --- | --- |
| CC(=O)O[C@H]1C(=O)[C@@]2(C)[C@H]([C@H](OC(=O)c3ccccc3)[C@]3(O)C[C@H](OC(=O)[C@H](OC(=O)CCC(=O)NCc4ccc(CN5C(=O)[C@H]6CNC(=O)[C@H](CC(=O)O)NC(=O)CNC(=O)[C@H](CCCNC(=N)N)NC(=O)C[C@H]5C(=O)N6)cc4)[C@@H](NC(=O)c4ccccc4)c4ccccc4)C(C)=C1C3(C)C)[C@]1(OC(C)=O)CO[C@@H]1C[C@@H]2O | 20 |
| CC(=O)O[C@H]1C(=O)[C@@]2(C)[C@H]([C@H](OC(=O)c3ccccc3)[C@]3(O)C[C@H](OC(=O)[C@H](OC(=O)CCC(=O)NCc4ccc(CN5C(=O)[C@@H]6CNC(=O)[C@H](CC(=O)O)NC(=O)CNC(=O)[C@H](CCCNC(=N)N)NC(=O)C[C@@H]5C(=O)N6)cc4)[C@@H](NC(=O)c4ccccc4)c4ccccc4)C(C)=C1C3(C)C)[C@]1(OC(C)=O)CO[C@@H]1C[C@@H]2O | 20 |
| N=C(N)NCCC[C@@H]1NC(=O)C[C@H]2NC(=O)[C@H](CNC(=O)[C@H](CC(=O)O)NC(=O)CNC1=O)N(Cc1ccc(CN)cc1)C2=O.O=C(O)C(F)(F)F | 20 |
